Here are results for 1 substance from article doi:10.1101/2023.02.06.527249.

By UniProt entry, the sequences of proteins in these tests, tags left out. Residues count along the entry.
UniProt P43632, 22-245: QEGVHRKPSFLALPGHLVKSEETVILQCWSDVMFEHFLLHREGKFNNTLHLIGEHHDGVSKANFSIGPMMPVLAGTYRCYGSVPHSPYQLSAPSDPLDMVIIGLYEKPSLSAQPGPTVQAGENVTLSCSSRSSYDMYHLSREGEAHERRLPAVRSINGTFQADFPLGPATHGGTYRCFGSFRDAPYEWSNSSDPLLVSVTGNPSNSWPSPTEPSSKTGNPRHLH

The assay has as its target HLA-C*16:02 on cells loaded with P9 with the Q8W substitution (…) (human | human (endogenous in 721.221)). Description: flow cytometry on cells.

The substance “KIR2DS4*001 KIR-Ig (KIR-Fc) fusion protein (from UniProt P43632 22-245) (Fc fusion)” gave a fold change of binding against unmodified P9 of 90 fold.
